For two compounds, Ki results are on record in ChEMBL document CHEMBL1944613, “Cloning, characterization and sulfonamide inhibition studies of an α-carbonic anhydrase from the living fossil sponge Astrosclera willeyana” (Bioorg Med Chem, 2012).

The structures appear in SMILES notation.

The Ki is a dissociation constant, usually derived from enzyme kinetics or from competition with a known ligand. Low values mean higher affinity, high ones lower affinity.

The assay concerns the target T1, Astrosclerin-3 (Astrosclera willeyana, UniProt A6YCJ1).
T1 sequence (A6YCJ1 whole entry): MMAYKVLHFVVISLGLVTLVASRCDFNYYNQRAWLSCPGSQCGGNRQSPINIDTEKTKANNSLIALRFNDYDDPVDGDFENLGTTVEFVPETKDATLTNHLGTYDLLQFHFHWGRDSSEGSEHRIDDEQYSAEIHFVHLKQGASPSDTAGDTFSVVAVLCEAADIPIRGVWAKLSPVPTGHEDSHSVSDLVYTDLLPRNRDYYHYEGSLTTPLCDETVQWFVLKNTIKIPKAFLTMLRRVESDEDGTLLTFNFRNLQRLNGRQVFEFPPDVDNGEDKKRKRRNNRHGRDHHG

Regarding `Nc1nnc(S(N)(=O)=O)s1`, the affinity, expressed as Ki, was 370 nM. The compound `Nc1cc(C(F)(F)F)c(S(N)(=O)=O)cc1S(N)(=O)=O` [2,4-DISULFAMYLTRIFLUOROMETHYLANILINE] showed a Ki of 552 nM.
